{"source": "patent US5833994A", "about": "“Use of the AH receptor and AH receptor ligands to treat or prevent cytopathicity of viral infection” (Paracelsian, Inc., priority 1997, dated 1998)", "key": {"Ah receptor [1]": {"target": "T1, Ah receptor (Cavia porcellus, UniProt Q6J287)", "T1 sequence (Q6J287 1-846)": "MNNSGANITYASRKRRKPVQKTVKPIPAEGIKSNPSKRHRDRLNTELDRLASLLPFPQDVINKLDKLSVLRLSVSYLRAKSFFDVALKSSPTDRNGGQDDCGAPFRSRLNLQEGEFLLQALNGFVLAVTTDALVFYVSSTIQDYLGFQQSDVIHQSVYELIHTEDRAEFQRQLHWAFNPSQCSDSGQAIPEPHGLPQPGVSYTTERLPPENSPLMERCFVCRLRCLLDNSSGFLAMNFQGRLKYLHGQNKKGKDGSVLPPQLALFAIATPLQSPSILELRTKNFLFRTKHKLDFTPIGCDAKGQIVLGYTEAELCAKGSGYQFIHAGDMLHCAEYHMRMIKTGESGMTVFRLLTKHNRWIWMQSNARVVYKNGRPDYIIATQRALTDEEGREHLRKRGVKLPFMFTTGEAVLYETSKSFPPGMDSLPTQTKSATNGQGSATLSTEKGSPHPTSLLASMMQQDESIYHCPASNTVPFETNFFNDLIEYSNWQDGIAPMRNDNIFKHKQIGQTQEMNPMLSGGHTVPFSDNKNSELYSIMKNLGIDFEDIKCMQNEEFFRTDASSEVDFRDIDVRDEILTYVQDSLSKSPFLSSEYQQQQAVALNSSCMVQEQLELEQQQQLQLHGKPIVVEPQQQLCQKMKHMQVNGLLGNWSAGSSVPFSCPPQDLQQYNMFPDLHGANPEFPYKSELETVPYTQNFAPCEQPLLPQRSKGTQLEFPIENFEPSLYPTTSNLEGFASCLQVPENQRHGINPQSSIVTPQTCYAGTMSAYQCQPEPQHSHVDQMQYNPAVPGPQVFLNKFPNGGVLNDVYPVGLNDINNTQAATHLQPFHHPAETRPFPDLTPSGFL", "assay": "Ah receptor transformation, agonist test (Ah-immunoassay, absence of TCDD)", "format": "biochemical, Guinea pig", "details": "no TCDD added"}, "Ah receptor [2]": {"target": "T1, Ah receptor", "assay": "Inhibition of Ah receptor transformation, antagonist test (Ah-immunoassay, 0.5 nM TCDD)", "details": "plus 0.5 nM TCDD"}}, "data": [{"smiles": "O=c1cc(-c2ccccc2)oc2c1ccc1ccccc12", "note": "[α-naphthoflavone]", "values": [{"measurement": "Ah receptor transformation, ELISA reading at 405 nm", "setting": "Ah receptor [1]; Table 7, 7.81 μM", "value": 85}, {"measurement": "Ah receptor transformation, ELISA reading at 405 nm", "setting": "Ah receptor [1]; Table 7, 15.63 μM", "value": 10}, {"measurement": "Ah receptor transformation, ELISA reading at 405 nm", "setting": "Ah receptor [1]; Table 7, 31.25 μM", "value": 20}, {"measurement": "Ah receptor transformation, ELISA reading at 405 nm", "setting": "Ah receptor [1]; Table 7, 62.5 μM", "value": 31.5}, {"measurement": "Ah receptor transformation, ELISA reading at 405 nm", "setting": "Ah receptor [1]; Table 7, 125 μM", "value": 77.5}, {"measurement": "Ah receptor transformation, ELISA reading at 405 nm", "setting": "Ah receptor [1]; Table 7, 250 μM", "value": 149.5}, {"measurement": "Ah receptor transformation, ELISA reading at 405 nm", "setting": "Ah receptor [1]; Table 7, 500 μM", "value": 263}, {"measurement": "inhibition of Ah receptor transformation, ELISA reading at 405 nm", "setting": "Ah receptor [2]; Table 7, 7.81 μM", "value": 735}, {"measurement": "inhibition of Ah receptor transformation, ELISA reading at 405 nm", "setting": "Ah receptor [2]; Table 7, 15.63 μM", "value": 458}, {"measurement": "inhibition of Ah receptor transformation, ELISA reading at 405 nm", "setting": "Ah receptor [2]; Table 7, 31.25 μM", "value": 338}, {"measurement": "inhibition of Ah receptor transformation, ELISA reading at 405 nm", "setting": "Ah receptor [2]; Table 7, 62.5 μM", "value": 248}, {"measurement": "inhibition of Ah receptor transformation, ELISA reading at 405 nm", "setting": "Ah receptor [2]; Table 7, 125 μM", "value": 296}, {"measurement": "inhibition of Ah receptor transformation, ELISA reading at 405 nm", "setting": "Ah receptor [2]; Table 7, 250 μM", "value": 279}, {"measurement": "inhibition of Ah receptor transformation, ELISA reading at 405 nm", "setting": "Ah receptor [2]; Table 7, 500 μM", "value": 308.5}]}]}
